{"source": "patent US6517846B2", "about": "“Cosmetic composition” (Kyowa Hakko Kogyo Co., Ltd., priority 2000, dated 2003)", "test_system": "human normal keratinocytes", "assay": "Evaluation of cytotoxicity suppression for human normal keratinocytes (summary statements, method not specified)", "settings": "MTT and NR methods"}
{"substance": "Triethanolamine N-Cocoyl-L-glutaminate", "values": [{"measurement": "cytotoxicity, comparison in words (from Table 1)", "result": "less toxic than N-cocoyl-L-glutamate"}]}
{"substance": "triethanolamine N-cocoyl glutamate", "values": [{"measurement": "cytotoxicity, comparison in words (from Table 1)", "result": "less cytotoxic than lauroyl β-alanine"}]}
